{"sequences": {"note": "Sequences of proteins named here, by UniProt entry; tags and fusion partners are left off. Residues count along the entry.", "UniProt P13726, 33-295 limits assumed": "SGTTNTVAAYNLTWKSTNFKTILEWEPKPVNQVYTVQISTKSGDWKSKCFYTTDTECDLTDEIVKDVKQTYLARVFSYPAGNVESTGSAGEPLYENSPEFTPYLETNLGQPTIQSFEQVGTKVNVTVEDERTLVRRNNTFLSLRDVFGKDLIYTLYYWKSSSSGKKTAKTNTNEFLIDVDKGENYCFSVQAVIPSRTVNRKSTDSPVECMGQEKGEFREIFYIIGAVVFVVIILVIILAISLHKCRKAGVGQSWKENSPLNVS"}, "source": "patent US20100028358A1", "about": "“Compositions and Methods for Controlling Tissue Factor Signaling Specificity” (priority 2005, published 2010)", "molecular_target": "tissue factor (TF) coagulant activity (Homo sapiens, UniProt P13726)", "experiment": "TF coagulant activity (Xa generation) on HaCaT cells", "settings": "1 mM agent, 10 minutes prior to Xa generation assay; PAO 10 μM", "note": "This is a selection: effects in other tests are not listed, and their absence says nothing."}
{"substance": "sodium nitroprusside", "values": [{"measurement": "TF coagulant activity after Hg2+-induced activation and washout", "value": "no effect on TF activity"}]}
